Assay results taken from patent publication US20120258076A1, “METHOD FOR CHARACTERIZING HOST IMMUNE FUNTION BY EX VIVO INDUCTION OF OFFENSIVE AND DEFENSIVE IMMUNE MARKERS” (HITACHI CHEMICAL RESEARCH CENTER, INC., priority 2009, published 2012).

Experiments:
Format in all cases: cell-based, human
[1] = test system: whole blood; test: Time course of mRNA induction in stimulated whole blood (FIG. 1); conditions: whole blood of healthy adults, 37° C., 0-20 hours, rIL-2 100 ng/mL or PHA
Method: Whole blood samples were collected from healthy human adults. Blood samples were heparinized when collected and placed into several individual tubes for an induction time course study. Eighteen equal volume aliquots from each tube were then stimulated with either phosphate buffered saline (PBS), rIL-2 at 100 ng/mL, or phytohemagglutinin (PHA). The aliquots were incubated at 37° C. for 0, 1, 2, 4, 8, or 20 hours. After incubation, samples were stored at −80° C. until analysis. Each sample was stimulated and analyzed in triplicate. mRNA encoding beta-actin, IL-2, IL-2 receptor type a (CD25) and IL-2 receptor type b (CD122) were measured according to the methods described in Mitsuhashi M, et al., Clin Chem 52:634-642 (2006), which is incorporated in its entirety by reference herein. […]
cDNA was synthesized directly in each well by addition of 30 μL of buffer containing 1× reverse transcription buffer [50 mM KCl, 10 mM Tris-HCl (pH 8.3), 5.5 mM MgCl2, 1 nL/μL Tween 20], 1.25 mM each deoxynucleoside triphosphate, 4 units of rRNasin, and 80 U of MMLV reverse transcriptase (Promega; without primers) and incubation at 37° C. for 2 h. […] The cycle threshold (Ct), i.e., the cycle at which certain amounts of PCR products (based on fluorescence) were generated, was determined with analytical software (SDS; Applied Biosystems). […]

[2] = test system: whole blood; test: Leukocyte function by ex vivo stimulation of whole blood with rIL-2 or zymosan (Table 2); conditions: rIL-2 100 ng/mL, 4 hours at 37° C., vs control samples
Method: Whole blood samples were collected from healthy human adults. Blood samples were heparinized when collected and placed into several individual tubes for an induction time course study. Eighteen equal volume aliquots from each tube were then stimulated with either phosphate buffered saline (PBS), rIL-2 at 100 ng/mL, or phytohemagglutinin (PHA). The aliquots were incubated at 37° C. for 0, 1, 2, 4, 8, or 20 hours. After incubation, samples were stored at −80° C. until analysis. Each sample was stimulated and analyzed in triplicate. mRNA encoding beta-actin, IL-2, IL-2 receptor type a (CD25) and IL-2 receptor type b (CD122) were measured according to the methods described in Mitsuhashi M, et al., Clin Chem 52:634-642 (2006), which is incorporated in its entirety by reference herein.
Briefly, 96-well filterplates were assembled with leukocyte reduction membranes (Leukosorb; Pall) and placed over oligo(dT)-immobilized collection plates. 150 μL of 5 mmol/L Tris (pH 7.4) was applied to wet the filter membranes. After centrifugation at 120 g for 1 min at 4° C. to remove the Tris solution from the membranes, 50 μL of the stimulated whole blood samples was applied to each well and immediately centrifuged at 120 g for 2 min at 4° C. The wells were then washed once with 300 μL of phosphate-buffered saline. After centrifugation at 2000 g for 5 min at 4° C. to remove the saline solution, 60 μL of stock lysis buffer [5 g/L N-lauroylsarcosine, 4× standard saline citrate, 10 mmol/L Tris-HCl (pH 7.4), 1 mmol/L EDTA, 1 mL/L IGEPAL CA-630 (substitute of NP-40), 1.79 mol/L guanidine thiocyanate (all from Sigma)], supplemented with 10 mL/L 2-mercaptoethanol (Bio-Rad), 0.5 g/L proteinase K (Pierce), 0.1 g/L salmon sperm DNA (5 Prime Eppendorf/Brinkman), 0.1 g/L Escherichia coli tRNA (Sigma), 5 nmol/L each of the specific reverse primers, and 10^10 molecules/L of synthetic RNA34 (as external control), was added to each well of the filterplates. The plates were then incubated at 37° C. for 10 min, placed over oligo(dT)-immobilized collection microplates (GenePlate; RNAture), and centrifuged at 2000 g for 5 min at 4° C. After overnight storage at 4° C., the microplates were washed 3 times with 100 μL of plain lysis buffer and then 3 times with 150 μL of wash buffer [0.5 mol/L NaCl, 10 mmol/L Tris (pH 7.4) 1 mmol/L EDTA] at 4° C.
cDNA was synthesized directly in each well by addition of 30 μL of buffer containing 1× reverse transcription buffer [50 mM KCl, 10 mM Tris-HCl (pH 8.3), 5.5 mM MgCl2, 1 nL/μL Tween 20], 1.25 mM each deoxynucleoside triphosphate, 4 units of rRNasin, and 80 U of MMLV reverse transcriptase (Promega; without primers) and incubation at 37° C. for 2 h. From each 30 μL reaction, 4 μL of cDNA was transferred directly to 384-well PCR plates, and 5 μL of TaqMan universal master mixture (Applied Biosystems) and 1 μL of 5 μM each of the forward and reverse primers for an infection-associated marker or beta-actin (see Table 1) were added. Primer sequences for ACTB (β-actin) were also published previously (Mitsuhashi M, et al. Pharm Res. 25:1116-1124, 2008), which is incorporated in its entirety by reference herein. PCR was carried out in a PRISM 7900HT (Applied Biosystems), with 1 cycle of 95° C. for 10 min followed by 45 cycles of 95° C. for 30 s, 55° C. for 30 s, and 60° C. for 1 min. Each gene was amplified in separate wells. The cycle threshold (Ct), i.e., the cycle at which certain amounts of PCR products (based on fluorescence) were generated, was determined with analytical software (SDS; Applied Biosystems). The Ct of each mRNA was subtracted with that of ACTB to calculate ΔCt, and % ACTB was calculated by 2^−ΔCt×100.
Samples were generally prepared and stimulated as described above, with rIL-2 used at 100 ng/ml and zymosan used at 1.5 mg/mL and stimulation was for four (4) hours at 37° C.

[3] = test system: heparinized whole blood; test: Leukocyte function profile of control patient (Table 5), ex vivo stimulation of whole blood; conditions: healthy control subject, statistically significant
Method: Anti-T cell receptor α/β chain (TCR) monoclonal antibody (IgG1K) and control mouse IgG1K were obtained from BioLegend (San Diego, Calif., USA). Reverse transcriptase, dNTP, and RNasin were purchased from Invitrogen (Carlsbad, Calif., USA). All other chemicals were purchased from Sigma-Aldrich (St. Louis, Mo., USA). Immune complex (heat aggregated IgG, HAG) was prepared by heating human IgG at 63° C. for 15 min as described previously (Ostreiko et al., 1987). In 8-well strip microtubes, 1.2 μl each of phytohemagglutinin-L (2 mg/ml), HAG (10 mg/ml), lipopolysaccharide (LPS) (0.5 mg/ml), zymosan A (75 mg/ml), recombinant interleukin 2 (rIL2) (5 μg/ml), phosphate buffered saline (PBS), anti-TCR antibody (50 μg/ml), and control IgG (50 μg/ml), were added respectively into 8 wells, and stored at −80° C. until use.
Heparinized whole blood samples were obtained from Apex Research Institute (Tustin, Calif., USA) after Institutional Review Board approvals. In order to equalize post-blood collection condition, blood samples were stored at 4° C. overnight. Next morning, blood was decanted into a reservoir and using an 8-well multi-channel pipette, 60 μl each of blood was dispensed into 3 strips containing the control agents or stimulants described above (FIG. 5A). The blood volume needed for this test was 1.44 ml (60 μl/well×8 wells×3 strips (triplicate)). […]

With “rIL-2: recombinant interleukin-2, stimulating agent for both offensive and defensive immune markers” the “IL-2 mRNA expression” value ([1]; FIG. 1B) was “not self-inducing”, the “CD25 mRNA induction” value ([1]; FIG. 1C) was “induction” and the “ACTB mRNA Avg. (control)” value [2] was 0.9088 fold. For the same substance, the “CD16 mRNA Avg. (offensive)” value [2] was 4-8 fold and 6.1303 fold, the “CTLA4 (1st Primer) mRNA Avg. (defensive)” value [2] was 1.0843 fold and the “GARP mRNA Avg. (defensive)” value [2] was 0.7404 fold. For the same substance, the “IFNγ mRNA Avg. (offensive)” value [2] was 260 fold and 260.48 fold, the “TNFα mRNA Avg. (offensive)” value [2] was 4-8 fold and 4.73 fold and the “ACTB mRNA fold increase” value [3] was “fold increase was <2, or >0.6”.

Where “and” joins values, the source holds several entries; their conditions need not be identical. Equal values may be shown once.
